Like-named read-outs stand apart in the source and are kept apart here.
Legend:
[1] = test system: P388 lymphocytic leukemia cells; settings: intraperitoneally, daily for 5 days, cited from earlier work
[2] = test system: human leukemia cell lines; assay: 3 day MTT assay/trypan blue exclusion, human leukemia cell lines; format: cell-based
[3] = test system: panel of 60 tumor cell lines; assay: Sulforhodamine B assay, NIH panel of 60 tumor cell lines; format: cell-based, human; settings: 48 hours
[4] = Brief acute toxicity testing in Swiss-Webster mice
[5] = Solubility
[6] = test system: caspase 3 and caspase 3-like activities; assay: Detection of caspase activity (PhiPhiLux); format: cell-based, human; settings: HL-60 cells, 48 and 72 hours

CC(=O)N[C@@H]1[C@@H](O)[C@H](O)[C@@H](CS[As](C)C)O[C@@H]1O
% T/C ([1]; dose 100 mg/kg): 125%

C[As](C)S[C@@H]1O[C@H](CO)[C@H](O)[C@H](O)[C@H]1O
% T/C ([1]; dose 50 mg/kg): 125%

1,2,3,4,-tetra-O-acetyl-6-S-dicyclohexylarsino-6-thio-β-D-glucopyranose
% T/C ([1]; dose 25 mg/kg): 120%

1,2,3,4,-tetra-O-acetyl-6-S-dihexadecylarsino-6-thio-β-D-glucopyranose
% T/C ([1]; dose 100 mg/kg): 125%

Bis [S-dimethylarsino-α-dihydrolipoic acid
% T/C ([1]; dose 50 mg/kg): 128%

S-dimethylarsino-2-thiobenzoic acid
anti-cancer activity against a panel of human leukemia cell lines [2]: significant anti-cancer activity
anticancer activity, NIH panel [3]: showed evidence of activity at low concentrations against a variety of tumor cell lines
LD50 [4]: 50 mg/kg

S-dimethylarsino-thiosuccinic acid
aqueous solubility [5]: about 15 mg/mL
solubility in ethanol ([5]; ethanol): more than 100 mg/mL
activation of caspases (PhiPhiLux staining) [6]: activation of caspases

From US6995188B2 (priority 2002, dated 2006)
